{"source": "paper PMC5306265", "about": "“A phase I dose-escalation study of TAK-733, an investigational oral MEK inhibitor, in patients with advanced solid tumors” (Investigational New Drugs, 2016)", "conditions": "once daily on days 1–21 in 28-day treatment cycles"}
{"smiles": "Cn1c(=O)c(F)c(Nc2ccc(I)cc2F)c2c(=O)n(C[C@@H](O)CO)cnc21", "note": "[TAK-733]", "values": [{"measurement": "maximum tolerated dose (MTD)", "value": 16, "unit": "mg"}]}
